ChEMBL document CHEMBL1142226, “Impact of physicochemical and structural properties on the pharmacokinetics of a series of alpha1L-adrenoceptor antagonists” (Drug Metab Dispos, 2007)

Key:
Rattus norvegicus = experiment: Unbound plasma clearance in Sprague-Dawley rat at 0.5 mg/kg, iv; format: ADME, organism-based; set-up: dose 0.5 mg/kg, route intravenous; details: in vivo
Canis familiaris [1] = experiment: Unbound plasma clearance in Beagle dog at 0.3 mg/kg, iv; format: ADME, organism-based, Canis lupus familiaris; set-up: dose 0.3 mg/kg, route intravenous; details: in vivo
Liver = experiment: Unbound intrinsic clearance in Beagle dog liver microsomes at 1 uM; format: ADME, Canis lupus familiaris, Microsome
Liver microsomes = experiment: Unbound intrinsic clearance in human liver microsomes at 1 uM; format: ADME, Microsome
Canis familiaris [2] = experiment: Unbound plasma clearance in Beagle dog at 0.5 mg/kg, iv; format: ADME, organism-based, Canis lupus familiaris; set-up: dose 0.5 mg/kg, route intravenous; details: in vivo

Row | Structure (SMILES) | CL (Rattus norvegicus) | CL (Canis familiaris [1]) | CL (Liver) | CL (Liver microsomes) | CL (Canis familiaris [2])
1 | COc1cc2nc(N3CCc4c(cccc4NS(C)(=O)=O)C3)nc(N)c2c(-c2ccccn2)c1OC [TAPRIZOSIN] | 40 mL/min/kg | 29 mL/min/kg |  |  | 
2 | COc1cc2nc(N3CCCN(C(=O)N4CCOCC4)CC3)cc(N)c2c(-c2ncco2)c1OC |  |  | 23 mL/min/kg | 22 mL/min/kg | 23 mL/min/kg
